The values below come from article PMC2923778 (Journal of Molecular Biology, 2010).

Amino acid sequences for entries named in this document (tags omitted).
mSPSB2 + elonginBC, UniProt P62869, whole entry, chain 2 of 3: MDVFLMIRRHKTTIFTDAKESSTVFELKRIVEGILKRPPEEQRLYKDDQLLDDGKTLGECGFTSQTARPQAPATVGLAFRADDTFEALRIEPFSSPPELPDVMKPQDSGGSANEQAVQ

The Kd is a measure of binding affinity in units of concentration.

Holding throughout (experiment): ITC; 100 μM peptide titrated into 10 μM mSPSB protein; 22 °C; 20 mM Tris, 150 mM sodium chloride, 2.5 mM calcium chloride, pH 8.0; single binding site model
What all share (conditions): both partners purified
A general note: ITC needs no label: the signal is the heat of the interaction.

One assay addresses mSPSB2 + elonginBC (murine, UniProt O88838 1-264; P62869 1-118; P83940 17-112).
The target of the next assay is T1, mSPSB2(12–224)[T198A] (murine, UniProt O88838 12-224, T198A).
T1 construct: murine SPSB2, residues 12-224, T198A; also called [T198A] mutant; source: E. coli Origami B(DE3) pLysS, GST fusion, purified (glutathione-Sepharose, thrombin cleavage, gel filtration)
T1 sequence (looked up): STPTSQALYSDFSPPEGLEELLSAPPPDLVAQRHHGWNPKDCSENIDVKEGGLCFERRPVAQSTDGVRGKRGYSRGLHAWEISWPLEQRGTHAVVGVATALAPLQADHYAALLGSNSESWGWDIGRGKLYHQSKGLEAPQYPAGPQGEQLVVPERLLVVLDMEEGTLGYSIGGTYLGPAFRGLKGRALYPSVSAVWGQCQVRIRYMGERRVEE

The target in the next assay is T2, mSPSB2(12–224) (murine, UniProt O88838 12-224).
T2 construct: murine SPSB2 (SSB-2), residues 12-224: lacks the first 11 residues and the C-terminal SOCS box; Uniformly 15N-labelled in one NMR experiment; also called mSPSB2ΔSB; 15N-mSPSB2(12–224); source: E. coli Origami B(DE3) pLysS, GST fusion, purified (glutathione-Sepharose, thrombin cleavage, gel filtration)
T2 sequence (looked up): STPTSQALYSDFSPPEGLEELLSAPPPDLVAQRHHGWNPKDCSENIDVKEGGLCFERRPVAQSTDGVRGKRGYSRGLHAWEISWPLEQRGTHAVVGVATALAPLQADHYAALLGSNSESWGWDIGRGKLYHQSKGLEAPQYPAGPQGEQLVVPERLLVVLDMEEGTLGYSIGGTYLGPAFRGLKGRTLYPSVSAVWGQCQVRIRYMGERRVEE

B1: hPar-4(59–77) (peptide)
peptide: GTPAAAAANELNNNLPGGA
notes: human prostate apoptosis response protein-4 (hPar-4), residues 59-77; Uniformly 15N-labelled in one NMR experiment; also called human prostate apoptosis response protein-4 residues 59–77; 15N-hPar-4(59–77); source: recombinant; cloning, expression and purification described in the Supplementary Data
For B1, the equilibrium dissociation constant (Kd) was 4.3 µM with mSPSB2 + elonginBC, 3 µM in the assay with mSPSB2(12–224)[T198A] and 4.6 µM with mSPSB2(12–224).
